Measured values reported in patent US20240174690A1, “ANNULATED 2-AMINO-3-CYANO THIOPHENES AND DERIVATIVES FOR THE TREATMENT OF CANCER” (BOEHRINGER INGELHEIM INTERNATIONAL GMBH, priority 2021, published 2024).

Legend:
[1] = system: KRAS G12D-dependent Ba/F3 cells; experiment: Ba/F3 proliferation assay, KRAS G12D; details: read-out: KRAS G12D Ba/F3 IC50, 72 h, AlamarBlue
Description: (§1) Ba/F3 cells are ordered from DSMZ (ACC300, Lot17) and grown in RPMI-1640 (ATCC 30-2001)+10% FCS+10 ng/mL IL-3 at 37° C. in 5% CO2 atmosphere. Plasmids containing KRASG12 mutants (i.e. […], G12C, G12V) are obtained from GeneScript. To generate KRASG12-dependent Ba/F3 models, Ba/F3 cells are transduced with retroviruses containing vectors that harbor KRASG12 isoforms. Platinum-E cells (Cell Biolabs) are used for retrovirus packaging. Retrovirus is added to Ba/F3 cells. To ensure infection, 4 μg/mL polybrene is added and cells are spinfected. Infection efficiency is confirmed by measuring GFP-positive cells using a cell analyzer. Cells with an infection efficiency of 10% to 20% are further cultivated and puromycin selection with 1 μg/mL is initiated. As a control, parental Ba/F3 cells are used to show selection status. Selection is considered successful when parental Ba/F3 cells cultures died. […]
(§2) For proliferation assays, Ba/F3 cells are seeded into 384-well plates at 1.5×10^3 cells/60 μL in growth media (RPMI-1640+10% FCS). […] AlamarBlue™ (ThermoFisher), a viability stain, is added and fluorescence measured in the PerkinElmer Envision HTS Multilabel Reader. The raw data are imported into and analyzed with the Boehringer Ingelheim proprietary software MegaLab (curve fitting based on the program PRISM, GraphPad Inc.).

[2] = Metabolic (microsomal) stability assay, human liver microsomes (HLM); details: predicted clearance as percent of liver blood flow, 1 μM
Description: The metabolic degradation of the test compound is assayed at 37° C. with pooled liver microsomes (mouse (MLM), rat (RLM) or human (HLM)). The final incubation volume of 48 μL pertime point contains TRIS buffer (pH 7.5; 0.1 M), magnesium chloride (6.5 mM), microsomal protein (0.5 mg/mL for mouse/rat, 1 mg/mL for human specimens) and the test compound at a final concentration of 1 μM. Following a short preincubation period at 37° C., the reactions are initiated by addition of 12 μL beta-nicotinamide adenine dinucleotide phosphate, reduced form (NADPH, 10 mM) and terminated by transferring an aliquot into solvent after different time points (0, 5, 15, 30, 60 min). Additionally, the NADPH-independent degradation is monitored in incubations without NADPH, terminated at the last time point by addition of acetonitrile. The quenched incubations are pelleted by centrifugation (4,000 rpm, 15 min). An aliquot of the supernatant is assayed by LC-MS/MS to quantify the concentration of parent compound in the individual samples.
In vitro intrinsic clearance (CLint, in vitro) is calculated from the time course of the disappearance of the test drug during the microsomal incubation. […]
For better across species comparison the predicted clearance is expressed as percent of the liver blood flow [% QH] […]

[3] = system: KRAS G12V-dependent Ba/F3 cells; experiment: Ba/F3 proliferation assay, KRAS G12V; details: read-out: KRAS G12V Ba/F3 IC50, 72 h, AlamarBlue
Description: as §1, §2

[4] = system: KRAS G12C-dependent Ba/F3 cells; experiment: Ba/F3 proliferation assay, KRAS G12C; details: read-out: KRAS G12C Ba/F3 IC50, 72 h, AlamarBlue
Description: as §1, §2

For `Cc1ccncc1-c1cn(-c2cc(O[C@@H](C)[C@@H]3CCCN3C)nc(-c3noc4c3CCC[C@@]43CCCc4sc(N)c(C#N)c43)n2)nn1`, the IC50 [1] was 4 nM, the “HLM QH” value [2] was <24% and the IC50 [3] was 5 nM. For the same compound, the IC50 [4] was 6 nM.
